# In the library only some 2.2% were active in any assay of this set; here they are far more common.
# miR-21 reporter: raises the signal of a miR-21 reporter; HeLa miR-21 FLuc reporter, luciferase, 48 h; Potency, µM (highest dose often 38.3 µM), for inactives: at the highest dose reporter change, positive = more light; 340,000 tested, under 10 active; active = well fitted rising curve with a large enough effect; inconclusive = small, poorly fitted or top-dose-only effect; inactive = no such curve, though single readings can be large or run the other way;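 also: % of control where 0% means no effect; miR-21 action dims this reporter so a rising signal means less miR-21 action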
#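 Using DMEM plus 10% FBS, HeLa miR-21-FLuc cells are incubated with test compounds (final up to about 40uM) for 48 hours; firefly luciferase signal is then imaged following reagent-mediated lysis.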
# GALK inh: blocks human galactokinase activity; 270,000 tested, 0.007% active; Potency, µM (highest dose often 57.5 µM), for inactives: at the top dose activity change, negative = inhibition, usual class: inhibitors; Purified GALK, Kinase-Glo residual ATP luminescence; AID 1868; also: potency is read from the fitted curve at half-maximal effect; % is scaled to controls: 0 for no effect and ±100 for the full control effect
#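 5 nM enzyme, 35 uM ATP, 100 uM galactose, 20 mM HEPES pH8.0, 5 mM MgCl2; 1 h RT; residual ATP by Kinase-Glo Plus luminescence, qHTS format.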
# Nrf2 inh: inhibitors of Nrf2 signaling. A549 ARE-Fluc reporter, luciferase luminescence, 18-24 h. Potency, µM (doses to about 46 µM), for the others: at the top dose activity change, negative = inhibition, most hits filed as inhibitors. 360,000 tested, 2.1% active; also: potency is read from the fitted curve at half-maximal effect; % is scaled to controls: 0 for no effect and ±100 for the full control effect; nearly all actives have a fitted effect of over 60% in size
#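 A549 ARE_Fluc cells (5000/well, 5% FBS OPTI-MEM) pre-incubated 2 h, then treated with compounds 18-24 h at 37C/5% CO2 in concentration-response. CellTiter-Fluor viability read first; BugLite luciferase luminescence after 15 min at room temperature gives Nrf2 activity.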
# A549 tox: kills or reduces viability of A549 cells in Nrf2 counter-screen; A549 ARE-Fluc cells, CellTiter-Fluor viability, 18-24 h; Potency, µM (titrated, usually from 46 µM), inactives show top-dose activity change, negative = cytotoxicity, most hits filed as inhibitors; 390,000 tested, 0.16% active; AID 504648; also: potency is read from the fitted curve at half-maximal effect; % is scaled to controls: 0 for no effect and ±100 for the full control effect
#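 Cytotoxicity counterscreen: CellTiter-Fluor fluorescence was measured in A549 ARE_Fluc cells after 18-24 h of compound exposure in a concentration series. The subsequent BugLite luminescent read reports ARE-luciferase activity.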
# PI4K2A inh: blocks human PI4K2A kinase activity; Q9BTU6; purified PI4K2A, ADP-Glo luminescence, 1 h; hits give low values; activity change, negative = inhibition, % at 76.9 µM; 420,000 tested, 0.13% active; AID 1346378; in the data active = activity change below about -50%; inconclusive = mostly about -30% to -49%;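 also: -100% = wells without enzyme as full effect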
#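 ADP-Glo luminescence measured ADP generated by PI4K2A enzyme (4 ug/mL before mixing) with 1.2 mM PI substrate (pre-mix) and 300 microM ATP (pre-mix). Tris pH7.5 buffer with MgCl2, Triton X-100; 1 h reaction at ambient temperature.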
# Nrf2 activator: activators of Nrf2 (ARE) signaling | AREc32 ARE-luciferase reporter (MCF7-derived line), luminescence, 24 h | Potency, µM (doses to about 46.1 µM), inactives show at the top dose activation, actives largely listed as activators | 410,000 tested, 0.31% active; also: potency is read from the fitted curve at half-maximal effect; % of control where 0% means no effect; nearly all actives have a fitted effect of over 65% in size
#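 Each well held 1000 AREc32 cells, which were incubated with compound for 24 hr at 37 deg C after overnight attachment, and ARE reporter activity was quantified by firefly luciferase luminescence.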
# Numbers without * were called inactive; u = inconclusive; x = not tested or not shown; [ ] = dose if it differs, or a comment. Unless noted, calls follow the shape of the dose curve; as a rule, active = well fitted curve in the direction sought with a large enough effect; inconclusive = small, poorly fitted or top-dose-only effect, or another doubt; inactive = no such curve, though single readings can be large; an effect the other way counts as inactive or inconclusive.
# Under each structure – miR-21 reporter, GALK inh, Nrf2 inh, A549 tox, PI4K2A inh, Nrf2 activator
C[C@@H]1[C@@H](Sc2ccccc2)CC(=O)O[C@@H]1c1ccc(-c2ccccc2)cc1
  x, x, 18µM*, -8%, -63*, u
O=c1c2ccccc2n(Cc2ccno2)n1[C@@H](Cc1ccccc1)Cn1cc(-c2ccc(-c3ccccc3)cc2)nn1
  x, x, x, x, -2, x
O=S(=O)(Nc1cccc(-c2cn3cccnc3n2)c1)c1ccc(F)cc1
  -3%, 0%, 16µM*, -28%, 2, 6%
COC(=O)C1=C[C@@H]([C@@H](C)[C@H](OC)c2ccccc2Br)[C@@H]2OCCC[C@H]12
  x, x, x, x, 4, x
O=S(=O)(N[C@@H]1CCCC[C@H]1N1CCOCC1)c1ccc(Cl)cc1
  x, x, x, x, -3, x
Cc1ccc(-c2n[nH]c(=O)c3ccccc23)cc1N
  -6%, 4%, u, -10%, -8, 2%
Nc1ccc(-c2n[nH]c(=O)c3ccccc23)cc1N
  -11%, 0%, 16µM*, 0%, -10, 3%
CCCCC[C@H]1CN(CCc2ccccc2)C(=O)[C@@H]1CC(=O)NCc1ccc(OC)cc1
  20%, x, 26µM*, u, -4, 5%
O=C(C1CCCN1S(=O)(=O)c1cccs1)N1CCc2ccccc2C1 (stereo unspecified)
  x, x, x, x, -3, x
COc1ccc(-n2c(COc3ccc(Cl)cc3)nnc2SCC(=O)Nc2ccc3c(c2)OCO3)cc1
  x, x, x, x, -2, x
CN(C)S(=O)(=O)c1cccc(NC(=O)CSc2nc3ccccc3[nH]2)c1
  15%, -2%, 21µM*, -18%, 0, 0%
CCN(CC)S(=O)(=O)c1cccc(NC(=O)CSc2nc3ccccc3[nH]2)c1
  14%, 1%, -7%, 5%, -3, -1%
COc1cccc(CN(C)CC(=O)Nc2cccc(S(=O)(=O)N(C)c3ccccc3)c2)c1OC
  x, x, u, 0%, -4, 0%
CN(c1ccccc1)S(=O)(=O)c1cccc(NC(=O)c2nn(C)c(=O)c3ccccc23)c1
  x, x, 23µM*, -2%, -1, 2%
CN(C)S(=O)(=O)c1cccc(NC(=O)Cc2ccc(-c3ccccc3)cc2)c1
  0%, -2%, 13µM*, u, -3, 3%
CN(c1ccccc1)S(=O)(=O)c1cccc(NC(=O)Cn2cnc3ccccc3c2=O)c1
  1%, 1%, x, -1%, 8, 2%
COc1cc(CC(=O)Nc2cccc(S(=O)(=O)N(C)c3ccccc3)c2)cc(OC)c1OC
  x, x, 15µM*, u, -4, 5%
Cc1ccccc1C(=O)N(Cc1ccccn1)CC1CCCO1 (stereo unspecified)
  x, x, x, x, -7, x
COc1ccc(-c2csc3nc(C)nc(N4CCCCC4)c23)cc1OC
  13%, 7%, -20%, -1%, -5, 16µM*
Cc1sc(NC(=O)Cc2ccc3c(c2)OCO3)nc1-c1ccc2c(c1)CCN2C(=O)c1ccccc1F
  -28%, -1%, u, 2%, 0, 3%

# A second format for some results above.
COC(=O)C1=C[C@@H]([C@@H](C)[C@H](OC)c2ccccc2Br)[C@@H]2OCCC[C@H]12
- miR-21 reporter: x
- GALK inh: x
- Nrf2 inh: x
- A549 tox: x
- PI4K2A inh: 4
- Nrf2 activator: x
O=S(=O)(N[C@@H]1CCCC[C@H]1N1CCOCC1)c1ccc(Cl)cc1
- miR-21 reporter: x
- GALK inh: x
- Nrf2 inh: x
- A549 tox: x
- PI4K2A inh: -3
- Nrf2 activator: x
Cc1ccc(-c2n[nH]c(=O)c3ccccc23)cc1N
- miR-21 reporter: -6%
- GALK inh: 4%
- Nrf2 inh: u
- A549 tox: -10%
- PI4K2A inh: -8
- Nrf2 activator: 2%

# Remaining list, next part:
# Under each structure – miR-21 reporter, GALK inh, Nrf2 inh, A549 tox, PI4K2A inh, Nrf2 activator
Cc1sc(NC(=O)CN2CCCC2)nc1-c1ccc2c(c1)CCN2C(=O)c1cccc(F)c1
  23%, -1%, 23µM*, u, -2, 7%
CC(C)S(=O)(=O)N1CCN(c2nc(-c3cccs3)nc3ccccc23)CC1
  x, x, u, 2%, x, x
Cc1cccn2c(=O)c3cc(C(=O)NCCN4CCOCC4)c(=N)n(Cc4ccc(F)cc4)c3nc12
  5%, -2%, 16µM*, u, 12, -1%
Cc1cccc(C)c1NC(=O)C1CCN(c2ncccn2)CC1
  x, x, x, x, 0, x
O=c1cc2oc3cc(O)c(O)cc3c(-c3ccccc3[N+](=O)[O-])c-2cc1O
  u, 15%, 3.3µM*, 5.2µM*, u, 0%
CCCCCCCCCCOC(=O)Cn1c(COc2ccc(OC)cc2)[n+](C)c2ccccc21
  u, -2%, 21µM*, u, 5, -3%
COC(=O)[C@]12C[C@H](CC(=O)N3CCN(C(=O)c4ccco4)CC3)C(=O)N(Cc3cccc4ccccc34)C1=C[C@H](COCc1ccccc1)O[C@@H]2C
  x, x, x, x, -4, x
CC(C)(C)c1cc(C=O)cc(C(C)(C)C)c1O
  x, x, x, x, 1, x
C=CC[C@@H](CC(=O)N(CCO)Cc1ccccc1)C(=O)N[C@@H](COC(=O)[C@H](CC=C)CC(=O)OC(C)(C)C)Cc1c[nH]c2ccccc12
  x, x, 23µM*, u, -2, -5%
C=CC[C@H](CC(=O)N(CCO)Cc1ccccc1)C(=O)N[C@@H](COC(=O)[C@@H](CC=C)CC(=O)OC(C)(C)C)Cc1c[nH]c2ccccc12
  x, x, 21µM*, u, 3, -5%
O=C1C(=C(c2ccccc2)c2ccccc2)Nc2ccccc21
  21%, -2%, u, u, -2, 13µM*
COc1ccc(C(=O)NCCn2cc(SCC(=O)Nc3nnc(C)s3)c3ccccc32)cc1
  x, x, 10µM*, -12%[1.84 µM], 5, 2%
C=C(C)n1c(=O)n(Cc2ccc(C)cc2)c2ccccc21
  -8%, 2%, 16µM*, -22%, -4, 0%
COc1ccc(CN2C(=O)CCCC2(C)c2nnnn2-c2c(C)cccc2C)cc1OC (stereo unspecified)
  x, x, x, x, 3, x
C/C(=N\NC(=S)NC1CCCCC1)c1ccc(OC(F)F)cc1OC(F)F
  4%, -3%, 21µM*, -14%, 2, 5%
CCN(CC)c1ccc(C=NNC(=O)Cc2cc(=O)[nH][nH]2)c(O)c1
  x, x, x, x, -8, x
COC(=O)/C=C/c1ccc2c(c1)S(=O)(=O)N(Cc1ccc(OC)cc1)[C@H]2CC(=O)OC
  x, x, 9%, -5%, -3, 18µM*
CN(CCc1ccccn1)C(=O)c1cc2ccccn2n1
  x, x, x, x, 0, x
O=C(c1ccc(OC2CCN(CCc3ccccc3)CC2)cc1)N1CCCC(CO)C1 (stereo unspecified)
  -2%, 3%, 19%, 0%, 8, -1%
